Measurements: PubChem BioAssay AID1656 (Sanford-Burnham Center for Chemical Genomics, 2009)
This is a selection; strong and weak results do not stand in their true shares. Some results for these compounds are left out of this collection, so the calls shown say nothing about other tests. Activity calls are given as the source filed them.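 Rule for the calls: active = lipid droplet intensity inhibited by at least 50%, with more than 500 cells counted; inconclusive = wells with under 300 cells, treated as cytotoxic; inactive = the rest.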

Experiment: inhibitors of hepatocyte lipid droplet formation, primary screen, imaging, high-throughput imaging, BODIPY stain (AID 1656)
Details: AML12 mouse hepatocytes, oleate lipid droplets, at 6.5 µM, stronger effect = higher value
Summary of the method: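 Assay system: AML12 hepatocytes (mouse) / Also added: 100 µM oleic acid challenge / Times: overnight treatment with compound plus oleate / Detection: high-content imaging of BODIPY-stained droplets and DAPI nuclei / Evaluation: % inhibition of lipid droplet signal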

Question: For `O=C(OC1CN2CCC1CC2)C(CO)(c1ccccc1)c1ccccc1` (stereo unspecified), which inhibition is on record?
Answer: inactive: 0%

Question: For `COc1ccc(Br)c(C(=O)NCC2(N3CCCCC3)CCCCC2)c1`, which inhibition is on record?
Answer: inactive: -3.5%

Question: With `CN(C)C1(CNC(=O)c2ccc(Br)cc2)CCCCC1` as the compound, how does the inhibition read?
Answer: inactive: -4.7%

Question: For `COc1cc(C(=O)NCC2(N(C)C)CCCCC2)c([N+](=O)[O-])cc1OC`, which inhibition is on record?
Answer: inactive: -2.3%

Question: With `COc1ccc(Cl)cc1C(=O)NCC1(N(C)C)CCCCC1` as the compound, how does the inhibition read?
Answer: inactive: -5.7%

Question: With `COc1cccc(C(=O)NCC2(N3CCCCC3)CCCCC2)c1` as the compound, how does the inhibition read?
Answer: inactive: -17.6%

Question: Which inhibition does the source give for `O=C(NCC1(N2CCCCC2)CCCCC1)c1cccc(Cl)c1` here?
Answer: inactive: 1.8%

Question: With `CN(C)c1ccc(C(=O)NCC2(N(C)C)CCCCC2)cc1` as the compound, how does the inhibition read?
Answer: inactive: 13.6%

Question: For `CN(C)C1CCCC1OC(=O)C(O)(c1ccccc1)c1ccccc1` (stereo unspecified), which inhibition is on record?
Answer: inactive: 5.3%

Question: Which inhibition does the source give for `Cc1ccccc1C(=O)NCC1(N2CCCCC2)CCCCC1` here?
Answer: inactive: 1.1%

Question: For `O=C(NCC1(N2CCCCC2)CCCCC1)c1cc(F)c(F)cc1Cl`, which inhibition is on record?
Answer: inactive: -73%

Question: For `C=CCN1CCN(CCOC(=O)C(O)(c2ccccc2)c2ccccc2)CC1`, which inhibition is on record?
Answer: inactive: 0.4%

Question: With `COc1ccc(C(=O)NCC2(N(C)C)CCCCC2)cc1` as the compound, how does the inhibition read?
Answer: inactive: 3.6%

Question: Which inhibition does the source give for `O=C(NCC1(N2CCCCC2)CCCCC1)c1cccc(Br)c1` here?
Answer: inactive: 3%

Question: With `CCN1CCCC(OC(=O)C2(O)c3ccccc3C=Cc3ccccc32)C1` (stereo unspecified) as the compound, how does the inhibition read?
Answer: inactive: -7.5%

Question: With `Cc1cc(C(=O)NCC2(N3CCCCC3)CCCCC2)ccc1[N+](=O)[O-]` as the compound, how does the inhibition read?
Answer: inactive: 2.8%

Question: For `O=C(NCC1(N2CCCCC2)CCCCC1)c1cc([N+](=O)[O-])ccc1Cl`, which inhibition is on record?
Answer: inactive: -10.8%

Question: With `CN1[C@@H]2CC[C@H]1CC(OC(=O)C(O)(c1ccccc1)c1ccccc1)C2` (stereo partly specified) as the compound, how does the inhibition read?
Answer: inactive: -9.2%

Question: With `COc1cc(SC)ccc1C(=O)NCC1(N(C)C)CCCCC1` as the compound, how does the inhibition read?
Answer: inactive: -10.6%

Question: With `CCN(CC)CC(C)C(C)OC(=O)C(O)(c1ccccc1)c1ccccc1` (stereo unspecified) as the compound, how does the inhibition read?
Answer: inactive: 5.1%

Question: Which inhibition does the source give for `Cc1ccc(C(=O)NCC2(N3CCCCC3)CCCCC2)cc1` here?
Answer: inactive: -6.1%
